Laboratory results from ChEMBL document CHEMBL1126447 (Bioorg Med Chem Lett, 1992).
pIC50: −log10 of the molar value.

Assays:
Butyrylcholinesterase = Butyrylcholinesterase (Equus caballus, UniProt Q9N1N9)
Acetylcholinesterase [1] = molecular target: Acetylcholinesterase (Homo sapiens, UniProt P22303)
Acetylcholinesterase [2] = molecular target: Acetylcholinesterase (Electrophorus electricus, UniProt O42275)

Structure (SMILES): Nc1c2c(nc3ccc(Cl)cc13)C1CCC2C1 (stereo not drawn)
- pIC50 (Butyrylcholinesterase): 7.77
- pIC50 (Acetylcholinesterase [1]): 5.96
- pIC50 (Acetylcholinesterase [2]): 7.11
